## Curated experimental data: properties

Source: data files of OPERA 2.9 (Mansouri et al.), github.com/kmansouri/OPERA.

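These are experimental values that the OPERA curators gathered from public databases to train and test their QSAR models. A listed value is a point estimate from one report or more. Conditions of the individual experiments are not part of the data. A value may pool stereoisomers or salt forms, and the file does not say which form was measured. Some entries may be limits or estimates that an upstream database listed as plain numbers.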

Melting points are in °C. Boiling points are in °C, nominally at 760 mmHg. The octanol-water partition coefficient is given as log10; larger values mean a more lipophilic compound. Solubility in water is on a log10 molar scale (set defined at 25 °C). Vapor pressure is log10 of mmHg; the set covers 15 to 30 °C, mostly 20 to 25 °C. Henry's law constant (air-water partitioning) is log10 of atm·m3/mol, nominally at 25 °C. The unbound fraction in human plasma runs from 0 (all bound) to 1 (all free). Clint is human hepatic intrinsic clearance in µL/min per million cells; 0 means that no clearance was seen. Cells with "–" have no entry in this list.

mp (°C)	bp (°C)	log Kow	water solubility (log10 mol/L)	log VP (log10 mmHg)	Henry's law constant (log10 atm·m3/mol)	fu	intrinsic clearance (µL/min/10^6 cells)	SMILES	name
–	–	–	-2.488	-8.383	–	–	–	N[C@@H]1CCc2c(c3ccccc3n2CCC(=O)O)C1	–
-74	–	2.58	–	-2.755	–	–	–	C=CC(=O)OCCOc1ccccc1	2-Phenoxyethyl acrylate
–	–	2.5	-3.303	–	–	–	–	O=Cc1cc(Br)ccc1O	5-Bromosalicylaldehyde
242.5	–	–	–	-5.292	–	–	–	NC(=O)c1ccc[n+](Cc2ccccc2)c1.[Cl-]	N-Benzylniacinamide, chloride
–	–	4.3	-4.722	–	–	–	–	OC(CCCN1CCCCC1)(c1ccccc1)c1ccccc1	Diphenidol
–	–	-1.703	–	–	–	–	0	Cc1cc(=O)[nH]c(=S)[nH]1	–
-14.2	–	–	-2.643	–	–	–	–	CCCCCCC1(C)CCC(=O)O1 (stereo not drawn)	Dihydrojasmone lactone
90	–	4.4	–	–	–	–	–	O=C(Nc1ccccc1Sc1ccccc1)Oc1ccccc1	Phenyl [2-(phenylthio)phenyl]carbamate
-73.8	–	0.6	–	-3.954	–	–	–	CCCC1=CC(=O)OC1O (stereo not drawn)	5-Hydroxy-4-propylfuran-2(5H)-one
53.2	–	–	-3.893	-4.148	–	–	–	C=CC(=O)OCCOC(=O)Nc1cccc(SC)c1	–
59	220	–	-1.44	–	–	–	–	CC(C)CCOC(=N)O	3-Methylbutyl hydrogen carbonimidate
117	–	5.9	-5.645	-5.011	–	–	–	CC12CCC3C(CCC4C(C)(C)CCCC43C)(CO1)O2 (stereo not drawn)	–
–	–	-0.994	–	-1.084	–	–	–	CN(C)CCOCCO	2-[2-(Dimethylamino)ethoxy]ethanol
–	–	–	-1.779	-6.568	–	–	–	C=S(=C)(Cl)c1cccc2c1C=CC(=[N+]=[N-])C2=O	6-Diazo-5,6-dihydro-5-oxonaphthalene-2-sulphonyl chloride
–	–	4.2	-3.558	-1.491	–	–	–	CC1C(C=O)CC2CC1C2(C)C (stereo not drawn)	Bicyclo[3.1.1]heptane-3-carboxaldehyde, 2,6,6-trimethyl-
–	–	3.5	-3.894	–	–	–	–	CCCCCCCCCCCC(=O)OCC(O)COCC(O)CO (stereo not drawn)	Polyglyceryl-2 laurate
-10.7	–	3.2	-3.159	-2.824	–	–	–	CC(C)(C)c1ccc(CCC=O)cc1	3-(4-tert-Butylphenyl)propanal
28.2	219.9	–	–	-0.965	–	–	–	O=C1COCCO1	Dioxanone
218	–	3.18	–	–	–	–	–	CCCC(=O)O[C@]1(C(=O)CO)CC[C@H]2[C@@H]3CCC4=CC(=O)CC[C@]4(C)[C@H]3[C@@H](O)C[C@@]21C	Hydrocortisone 17-butyrate
3	–	0.03	-3.955	–	–	–	–	CCCCCCCC/C=C\CCCCCCCCNCCCN	N-Oleyl-1,3-propanediamine
76	–	4.2	-5.265	–	–	0.05142	–	OCc1cc(C(O)CNCCCCCCOCCCCc2ccccc2)ccc1O (stereo not drawn)	Salmeterol
225	–	–	-6.69	-10.08	–	–	–	CCn1c(O)c(N=Nc2ccc(Cl)cc2[N+](=O)[O-])c(C)c(C#N)c1=O	–
81.8	–	–	-3.735	-6.135	–	–	–	COc1cc(C=C(C(C)=O)C(C)=O)cc(OC)c1OC	Trimethoxybenzylidene pentanedione
–	–	–	–	–	–	0.105	5.841	CN1CCN2c3ccccc3Cc3ccccc3C2C1 (stereo not drawn)	Mianserin
81	–	2.73	–	-5.763	–	–	–	CCOC(=O)CNC(=O)[C@@H]1C[C@H](C)CC[C@H]1C(C)C	–
176	–	1.89	-3.183	-4.62	–	–	–	OC(c1ccccc1)c1nc2ccccc2[nH]1 (stereo not drawn)	2-Hydroxybenzylbenzimidazole
-17	–	4.35	–	–	–	–	–	CCCCCCCCCCCCCOC(=O)c1ccc(C(=O)OCCCCCCCCCCCCC)c(C(=O)OCCCCCCCCCCCCC)c1	Tri(tridecyl) benzene-1,2,4-tricarboxylate
-15	–	–	–	-1.275	–	–	–	CC(CC(C)(C)C)CC(C)(C)CC(C)(C)C (stereo not drawn)	2,2,4,4,6,8,8-Heptamethylnonane
–	–	-0.4	-2.98	–	–	–	–	CC1=C(C(=O)O)N2C(=O)C(NC(=O)C(N)c3ccc(O)cc3)C2SC1.O (stereo not drawn)	Cefadroxil monohydrate
188	–	-0.221	–	-5.333	–	–	–	COc1ccc(/C=C(\C#N)C(=O)O)cc1OC	(E)-2-Cyano-3-(3,4-dimethoxyphenyl)prop-2-enoic acid
–	–	1.59	–	-3.073	–	–	–	OCc1ccc(Br)cc1	4-Bromobenzyl alcohol
144.1	–	3.9	-4.656	–	–	–	–	CCCc1nc(C)c2c(=O)nc(-c3ccccc3OCC)[nH]n12	–
-13.9	–	5	-4.565	0.871	–	–	–	C1=C\CCCCCC/1	Cyclooctene, (1Z)-
–	–	0.54	-2.275	–	–	–	–	O=C(O)c1ccc2c(c1)C(=O)OC2=O	Trimellitic anhydride
–	–	–	–	-5.658	-6.388	–	–	Clc1cc(Cl)cc(C2(CC(Cl)(Cl)Cl)CO2)c1 (stereo not drawn)	Tridiphane
-109	–	3.4	-2.583	0.536	–	–	–	C=COC1CCCCC1	(Ethenyloxy)-cyclohexane

Excerpt, the final 6 entries:

{"smiles": "OCc1ccc(Br)cc1", "name": "4-Bromobenzyl alcohol", "log Kow": "1.59", "log VP (log10 mmHg)": "-3.073"}
{"smiles": "CCCc1nc(C)c2c(=O)nc(-c3ccccc3OCC)[nH]n12", "mp (°C)": "144.1", "log Kow": "3.9", "water solubility (log10 mol/L)": "-4.656"}
{"smiles": "C1=C\\CCCCCC/1", "name": "Cyclooctene, (1Z)-", "mp (°C)": "-13.9", "log Kow": "5", "water solubility (log10 mol/L)": "-4.565", "log VP (log10 mmHg)": "0.871"}
{"smiles": "O=C(O)c1ccc2c(c1)C(=O)OC2=O", "name": "Trimellitic anhydride", "log Kow": "0.54", "water solubility (log10 mol/L)": "-2.275"}
{"smiles": "Clc1cc(Cl)cc(C2(CC(Cl)(Cl)Cl)CO2)c1", "stereo": "stereo not drawn", "name": "Tridiphane", "log VP (log10 mmHg)": "-5.658", "Henry's law constant (log10 atm·m3/mol)": "-6.388"}
{"smiles": "C=COC1CCCCC1", "name": "(Ethenyloxy)-cyclohexane", "mp (°C)": "-109", "log Kow": "3.4", "water solubility (log10 mol/L)": "-2.583", "log VP (log10 mmHg)": "0.536"}